# Yeast mating assay B: variants of the scFv Ab-14

Reference: Li et al. 2023, doi:10.1038/s41467-023-39022-2. File: FLAb, binding data.

Target peptide (SARS-CoV-2 spike, HR2 region): PDVDLGDISGINAS

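Phage display of a naive human antibody library on the peptide gave the parent. The variants were designed computationally from a first round of random CDR variants and then made and measured. Group labels follow the data file (Ctrl: baseline library sampled from a position-specific scoring matrix, with some repeated check sequences; Rand: our label for a block that the file lists under HC and that is probably the random mutants of the ten best first-round binders; GP: Gaussian process model; HC: hill climbing; Gen: genetic algorithm; Gibbs: Gibbs sampling; a sequence that several methods proposed may carry one label only). The scFvs were displayed on barcoded MATa yeast, the peptide on MATalpha yeast. Binding brings cells together so that they mate, and sequencing counts the barcode pairs among the diploids. Scores were corrected for input abundance and mapped to Kd with protein pairs of known affinity run in the same pool. Mating was done six times.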

The variants keep the heavy chain, the linker and the frameworks of Ab-14 (scFv order VH, a (GGGGS)3 linker, VL).
VH: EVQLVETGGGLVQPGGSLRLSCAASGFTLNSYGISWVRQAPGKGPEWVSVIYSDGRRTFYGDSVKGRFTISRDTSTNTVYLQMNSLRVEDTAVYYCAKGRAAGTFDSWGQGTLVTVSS
VL: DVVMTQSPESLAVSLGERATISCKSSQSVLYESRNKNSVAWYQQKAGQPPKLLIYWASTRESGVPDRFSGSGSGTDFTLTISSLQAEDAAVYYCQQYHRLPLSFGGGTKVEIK

The parent's light chain CDRs are KSSQSVLYESRNKNSVA, WASTRES, QQYHRLPLS; each variant's own CDRs replace them letter for letter. This list holds designs with at most six substitutions. The Kd shown is the geometric mean over detected replicates; a lower Kd is a better binder. "nd" marks a missing value. The strain was present, yet no cells mated with the target were sequenced in any replicate, which points to weak or no binding. Of ten entries with the parent sequence, four were seen in most replicates (averages 2.2 nM to 240 nM), three in one and three in none, so single entries are noisy.

With KLEQSELYESRNKQSVA | NASERES | QQYHRLPLS [GP_Gibbs] the result was 910 pM (6 of 6 replicates).
With KMSQSVLYEDRNKNSVA | QASTREP | QQYHRLILS [Ctrl] the result was nd (0 of 6 replicates).
With KMEQSVLYESRNKNSVA | NASTRES | QQYHRLPLS [GP_Gen] the result was 700 pM (6 of 6 replicates).
With KSSQSVLYESRNKNSVA | AASTRES | QQYHRLPLT [Ctrl] the result was 2.0 µM (1 of 6 replicates).
With KVSQSCLGESRNKMSVA | NASTREK | QQYHRLPLS [GP_Gibbs] the result was 680 pM (6 of 6 replicates).
With KFSQSQLYESRNKNSVA | NASTRES | QQYHRLPLS [GP_Gen] the result was 720 pM (6 of 6 replicates).
With KSSMSGLYESRNKNSVA | EASTRES | QQYHRLPLS [GP_HC] the result was 970 pM (6 of 6 replicates).
With KSSSSVLYESHNKNSVA | NASTRMS | QQYHRLPLS [GP_HC] the result was 11 nM (6 of 6 replicates).
With KSSQSWLYESRNFWSVA | SASTRES | QQYHRLPLS [GP_HC] the result was 18 nM (6 of 6 replicates).
With KLSQSWLMESRNKNSVA | EASTRES | QQYHRLPLS [GP_HC] the result was 1.9 nM (6 of 6 replicates).
With ASSQSVLHESRNKNSVA | WASTRES | QQYHRLPLS [Ctrl] the result was 11 nM (1 of 6 replicates).
With KLSQSMLYESRNKNSVA | NASQREV | QQYHRLPLS [GP_Gen] the result was 7.9 nM (6 of 6 replicates).
With KSGQGVLYESRNKNSVA | GASTGES | QQYHRLPLS [Rand] the result was 230 nM (3 of 6 replicates).
With KVSGSVLYESRNKNSVA | EASTRES | QQYHRLPLS [GP_Gen] the result was 1.1 nM (6 of 6 replicates).
With KWKQSVLNESRNKNSFA | QASTRES | QQYHRLPLS [Ctrl] the result was 2.3 nM (6 of 6 replicates).
With KYSQLVLMESRNMNSVA | NASTREE | QQYHRLPLS [GP_Gibbs] the result was 980 pM (6 of 6 replicates).
With KSSISYLIESRNKNSVA | EASTREV | QQYHRLPLS [GP_HC] the result was 830 pM (6 of 6 replicates).
With KSSQSDPYESRNKNSVA | GASTRES | QQYARLPLS [Ctrl] the result was 480 pM (6 of 6 replicates).
With KSSKSVLYEDRNLNHVA | WASMRES | QQYHRLALS [Ctrl] the result was nd (0 of 6 replicates).
With KLQQSHLYESRNKNSVA | NASTRCS | QQYHRLPLS [GP_Gen] the result was 960 pM (6 of 6 replicates).
With KSEGGELYESRNKNSVA | GASMRES | QQYHRLPLS [GP_Gibbs] the result was 1.1 nM (6 of 6 replicates).
With KSSQSVLYESRNKNDVA | WASTRES | QQCHRLPLS [Ctrl] the result was nd (0 of 6 replicates).
With KLSQSWLYESRNKNSVA | HASTRCS | QQYHRLPLS [GP_Gen] the result was 2.1 nM (6 of 6 replicates).
With KSSQSVVYESRNKMSVA | WASTRES | QQYHRLPLS [Ctrl] the result was 10 nM (1 of 6 replicates).
With KLSQSVLYESSNKNSVA | WADTRES | QQYARLPLS [Ctrl] the result was 1.3 nM (6 of 6 replicates).
With KMSQSVLYESRNKYSVA | WASEREE | QQYHRLPLS [Ctrl] the result was 77 nM (4 of 6 replicates).
With KLSDSVLQESRNKNSVA | DASTRES | QQYHRLPLS [GP_HC] the result was 390 pM (6 of 6 replicates).
With KSSQSVLYESRNKNSVA | DASTREM | QQYHRLPLS [Ctrl] the result was 1.8 nM (6 of 6 replicates).
With KLSQSMLYESRNKNSVA | HASTRMS | QQYHRLPLS [GP_Gen] the result was 1.2 nM (6 of 6 replicates).
With KLSQSTLYDSQNKNSVA | HASTRES | QQYHRLPLS [GP_HC] the result was 1.3 nM (6 of 6 replicates).

Top 3 of the variants detected in all replicates, tightest first:

CDR-L1,CDR-L2,CDR-L3,group,Kd (apparent),replicates with signal
KLSDSVLQESRNKNSVA,DASTRES,QQYHRLPLS,GP_HC,390 pM,6/6
KSSQSDPYESRNKNSVA,GASTRES,QQYARLPLS,Ctrl,480 pM,6/6
KVSQSCLGESRNKMSVA,NASTREK,QQYHRLPLS,GP_Gibbs,680 pM,6/6

The authors averaged sequences with at least three values out of six and counted those with two or fewer as poor binders. Values of this round are not directly comparable with the first-round values of the same sequences. Nonspecific signal, from three strains lacking the peptide, appeared in 4% of pairings of all light chain designs, centred on 430 nM (5% of these signals below 38 nM); values are not corrected for it.